Laboratory results taken from article PMC5627017 (Frontiers in Pharmacology, 2017).

The chains behind the UniProt entries cited, without tags or fusion partners. Where a name states a change or a piece, a line headed by the entry shows the natural chain unless it says otherwise.
UniProt P35367, whole entry: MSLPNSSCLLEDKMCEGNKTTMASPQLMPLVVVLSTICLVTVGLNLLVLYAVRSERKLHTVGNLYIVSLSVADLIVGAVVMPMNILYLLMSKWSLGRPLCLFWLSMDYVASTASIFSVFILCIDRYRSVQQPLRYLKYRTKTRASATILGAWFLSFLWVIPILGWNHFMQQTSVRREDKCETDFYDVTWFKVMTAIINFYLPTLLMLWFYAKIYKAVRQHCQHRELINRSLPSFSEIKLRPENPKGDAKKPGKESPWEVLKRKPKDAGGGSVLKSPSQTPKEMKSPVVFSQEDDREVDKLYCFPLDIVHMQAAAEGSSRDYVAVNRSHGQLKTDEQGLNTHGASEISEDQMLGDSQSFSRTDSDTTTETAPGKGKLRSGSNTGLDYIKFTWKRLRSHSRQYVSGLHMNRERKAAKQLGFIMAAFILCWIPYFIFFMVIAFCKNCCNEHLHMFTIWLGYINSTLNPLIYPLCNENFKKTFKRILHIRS

What was measured:
[1] = biological target: H1R endogenously expressed in HeLa cells (Homo sapiens, UniProt P35367); assay: Receptor recovery of calcium mobilization after antagonist washout; format: cell-based; settings: for krec (recovery rate of histamine induced calcium mobilization): 10x Ki overnight pre-incubation; for krec (recovery rate of histamine induced calcium mobilization) / RecT (receptor recovery time), calcium mobilization: washout, 37°C, mean ± SEM of ≥3; for Steady-state recovery (%): fitted Ymax of histamine-induced calcium response after washout, relative to vehicle pre-treated cells; for RecT (receptor recovery time), calcium mobilization: reciprocal of krec
[2] = biological target: histamine H1 receptor (H1R) (Homo sapiens, UniProt P35367); settings: mean ± SEM of ≥3; for koff (25°C) / kon (25°C): 0-81 min; for pKd,calc (25°C): -log(koff/kon); for RT (residence time): RT = 1/koff, 25°C

In the case of CN(C)CCCOc1ccccc1Cc1ccccc1, the “krec (recovery rate of histamine induced calcium mobilization)” value ([1]; 10^-5 M histamine) is reported as 0.24 ± 0.06 min⁻¹, the “recovery of histamine induced calcium mobilization after washout (in words)” value ([1]; 10x Ki pre-incubation, 10^-5 M histamine) is reported as “full recovery of histamine induced calcium mobilization was already obtained after 1 or 2 data points” and the “Steady-state recovery (%)” value [1] is reported as 98 ± 1%. For the same compound, the “RecT (receptor recovery time), calcium mobilization” value ([1]; 10x Ki pre-incubation) was 5 ± 2 min, the “koff (25°C)” value [2] was 0.015 ± 0.0033 s⁻¹ and the “kon (25°C)” value [2] was 300 ± 100 10^6⋅min^-1⋅M^-1. For the same compound, the “pKd,calc (25°C)” value [2] was 8.4 ± 0.1 and the “RT (residence time)” value [2] was 1.1 ± 0.2 min.
In the case of c1ccc(Cc2ccccc2OC2CCNCC2)cc1, the “krec (recovery rate of histamine induced calcium mobilization)” value ([1]; 10^-5 M histamine) is reported as 0.22 ± 0.07 min⁻¹, the “Steady-state recovery (%)” value [1] is reported as 100 ± 2% and the “RecT (receptor recovery time), calcium mobilization” value ([1]; 10x Ki pre-incubation) is reported as 6 ± 2 min. For the same compound, the “koff (25°C)” value [2] was 0.0217 ± 0.005 s⁻¹, the “kon (25°C)” value [2] was 100 ± 40 10^6⋅min^-1⋅M^-1 and the “pKd,calc (25°C)” value [2] was 7.8 ± 0.1. The “RT (residence time)” value [2] was 0.9 ± 0.2 min.
